Source: US20060264455A1 (priority 2005, published 2006)
Read-outs that look alike come from different tables or passages of the source.

Experiments:
[1] = system: formalin-induced paw-licking; assay: Formalin test (paw licking/biting) in mice; type: in vivo; conditions: 1 mg/kg i.p., one value per animal #01-08
Description: The formalin test for antinociceptive activity is described in numerous publications, e.g., Hunskaar, S., O. B. Fasmer, and K. Hole, J. Neurosci. […] The formalin test is accepted as an art recognized model of persistent clinical pain.
Male Swiss Webster NIH mice (20-30 g; Harlan, San Diego, Calif.) were used in the experiments described herein. Food was withdrawn on the day of experiment. Mice were placed in Plexiglass jars for at least 1 hour to accommodate to the environment. Following the accommodation period, mice were weighed and given either a huperzine compound administered intraperitoneal (i.p.) or oral (p.o.), or the appropriate volume of vehicle (10% Tween-80). Fifteen minutes after the i.p. dosing, and 30 minutes after the p.o. dosing mice were injected with formalin (20 μL of 5% formaldehyde solution in saline) into the dorsal surface of the right hind paw. Mice were transferred to the Plexiglass jars and monitored for the amount of time spent licking or biting the injected paw. Periods of licking and biting were recorded in 5 minute intervals for 40 minutes after the formalin injection. All experiments were done in a blinded manner. The early phase (acute) of the formalin response is measured as licking/biting between 0-5 minutes, and the late phase (inflammatory) is measured from 10-40 minutes. Differences between vehicle and drug treated groups are analyzed by one-way analysis of variance (ANOVA). A P value<0.05 is considered significant.
Fifteen minutes after the i.p. dosing, mice were injected with formalin (20 μL of 5% formaldehyde solution in saline) into the dorsal surface of the right hind paw. Periods of licking and biting were recorded in 5 minute intervals for 40 minutes after the formalin injection as shown below in Tables 1 and 2. All experiments were done according to the art-recognized Anticonvulsant Screening Program of the NINDS at the University of Utah.
Duration of paw licking in the tables below is expressed in seconds.

motor skills on rotorod = assay: Toxicity Model (TOX), rotorod, mice; type: in vivo; conditions: I.P., 5 mg/kg
From the text: To investigate the neurotoxicity levels of the huperzine compounds, the Toxicity Model (TOX) using a rotorod is employed. The animals (e.g., mice) were trained to stand on an accelerating rotorod rotating at 10 rev min^−1 with a diameter of 3.2 cm. The trained animal can be given the huperzine compound at various doses and the effect of huperzine on their motor skills can be determined. The dose at which the animals fell off the rotorod is the toxic dose.
The neurotoxicity of huperzine was tested in the rotorod test. The mice were trained to stand on an accelerating rotorod rotating at 10 rev min^−1 with a diameter of 3.2 cm. The trained animals were given the huperzine at various doses and the effect of huperzine on their motor skills was determined. The dose at which the animals fell off the rotorod was the toxic dose.

[2] = system: minimal motor impairment (ataxia, abnormal gait and stance); assay: Toxicity (TOX) / minimal motor impairment, rats; conditions: oral, 1 mg/kg
[3] = system: 6 Hz limbic seizures (corneal stimulation); conditions: IP, 1 h

Structure (SMILES): C/C=C1\[C@H]2C=C(C)C[C@]1(N)c1ccc(=O)[nH]c1C2 [Huperzine A]
- Duration of mice paw licking ([1]; 0 min): 0.00 s
- Duration of mice paw licking ([1]; 5 min): 0.00 s
- Duration of mice paw licking ([1]; 10 min): 0.00 s
- Duration of mice paw licking ([1]; 15 min): 0.00 s
- Duration of mice paw licking ([1]; 20 min): 0.00 s
- Duration of mice paw licking ([1]; 25 min): 0.00 s
- Duration of mice paw licking ([1]; 30 min): 0.00 s
- Duration of mice paw licking ([1]; 35 min): 0.00 s
- Duration of mice paw licking ([1]; 40 min): 0.00 s
- N/F, TOX time course (motor skills on rotorod; 0.5 h): 4/4
- N/F, TOX time course (motor skills on rotorod; 1.0 h): 4/4
- N/F, TOX time course (motor skills on rotorod; 2.0 h): 4/4
- N/F, TOX time course (motor skills on rotorod; 4.0 h): 4/4
- N/F, TOX time course (motor skills on rotorod; 6.0 h): 4/4
- N/F, TOX time course ([2]; 0.25 h): 0/4
- N/F, TOX time course ([2]; 0.5 h): 0/4
- N/F, TOX time course ([2]; 1.0 h): 0/4
- N/F, TOX time course ([2]; 2.0 h): 0/4
- N/F, TOX time course ([2]; 4.0 h): 0/4
- N/F, TOX time course ([2]; 6.0 h): 0/4
- N/F, ED50 Biological Response ([3]; 22 mA, 0.09 mg/kg): 1/8
- N/F, ED50 Biological Response ([3]; 22 mA, 0.175 mg/kg): 2/8
- N/F, ED50 Biological Response ([3]; 22 mA, 0.35 mg/kg): 5/8
- N/F, ED50 Biological Response ([3]; 22 mA, 0.7 mg/kg): 7/8
- N/F, ED50 Biological Response ([3]; 32 mA, 0.2 mg/kg): 0/8
- N/F, ED50 Biological Response ([3]; 32 mA, 0.3 mg/kg): 2/8
- N/F, ED50 Biological Response ([3]; 32 mA, 0.415 mg/kg): 7/8
- N/F, ED50 Biological Response ([3]; 32 mA, 0.83 mg/kg): 8/8
